# Experimental data reported in US20180028594A1, “[…] OPIOID RECEPTOR AGONISTS FOR HARD TISSUE PAIN” (Cara Therapeutics, Inc., priority 2014, published 2018).
# Columns and labels:
# [1] = test system: postoperative pain (hard tissue surgery); experiment: Phase 2 clinical trial CLIN2003, bunionectomy, postoperative hard tissue pain
# [2] = test system: postoperative pain (soft tissue surgery); experiment: Phase 2 clinical trial CLIN2002, laparoscopic hysterectomy, postoperative pain; conditions: 0.04 mg/kg I.V. preoperatively and/or postoperatively
smiles,measurement,setting,value
"CC(C)C[C@@H](NC(=O)[C@@H](Cc1ccccc1)NC(=O)[C@H](N)Cc1ccccc1)C(=O)N[C@H](CCCCN)C(=O)N1CCC(N)(C(=O)O)CC1 [CR845, D-Phe-D-Phe-D-Leu-D-Lys-[ω(4-aminopiperidine-4-carboxylic acid)]—OH]",Mean fentanyl use versus placebo,[1]; 48 hour period,no difference
same,Safety and tolerability,[1]; repeated I.V. 0.005 mg/kg,safe and generally well tolerated
same,Safety and tolerability,[2],safe and generally well tolerated
